Experimental data: ChEMBL document CHEMBL4831546, “Discovery of a Potent and Orally Bioavailable Hypoxia-Inducible Factor 2α (HIF-2α) Agonist and Its Synergistic Therapy with Prolyl Hydroxylase Inhibitors for the Treatment of Renal Anemia” (J Med Chem, 2021)

Sequences of proteins named here, by UniProt entry; tags and fusion partners are left off. A change or cut given only in a name is not applied to a line headed by its entry.
UniProt Q99814: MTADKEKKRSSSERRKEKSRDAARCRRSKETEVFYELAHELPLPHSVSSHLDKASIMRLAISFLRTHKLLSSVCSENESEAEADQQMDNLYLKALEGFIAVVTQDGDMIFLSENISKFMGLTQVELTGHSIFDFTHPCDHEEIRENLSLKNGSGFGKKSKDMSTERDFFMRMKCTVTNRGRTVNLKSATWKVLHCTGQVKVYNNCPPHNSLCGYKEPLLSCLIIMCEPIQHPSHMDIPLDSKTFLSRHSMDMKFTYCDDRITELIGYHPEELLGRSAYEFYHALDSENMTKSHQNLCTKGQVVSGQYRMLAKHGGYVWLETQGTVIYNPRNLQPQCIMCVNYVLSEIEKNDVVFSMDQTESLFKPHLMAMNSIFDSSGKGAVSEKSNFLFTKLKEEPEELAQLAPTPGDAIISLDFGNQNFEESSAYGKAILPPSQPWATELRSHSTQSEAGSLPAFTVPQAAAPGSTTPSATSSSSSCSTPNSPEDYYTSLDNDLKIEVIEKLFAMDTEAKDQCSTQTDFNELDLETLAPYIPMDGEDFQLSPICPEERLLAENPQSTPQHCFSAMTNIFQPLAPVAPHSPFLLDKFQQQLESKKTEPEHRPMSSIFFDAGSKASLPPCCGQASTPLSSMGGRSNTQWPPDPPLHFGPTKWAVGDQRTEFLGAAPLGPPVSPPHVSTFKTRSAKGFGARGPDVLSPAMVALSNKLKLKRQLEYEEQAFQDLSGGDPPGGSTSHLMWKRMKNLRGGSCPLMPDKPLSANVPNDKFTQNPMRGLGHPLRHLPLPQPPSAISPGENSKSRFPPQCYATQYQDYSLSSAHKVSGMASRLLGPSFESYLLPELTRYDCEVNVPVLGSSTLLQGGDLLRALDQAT

Molecular target: Endothelial PAS domain-containing protein 1 (Homo sapiens, UniProt Q99814)

Brc1cc(Br)cc(Nc2nsc3ccccc23)c1
pEC50: 5.87

pEC50: −log10 of the molar value.
